Test results: US7166588B2 (priority 2000, dated 2007)

Sequences of proteins named here, by UniProt entry; tags and fusion partners are left off. Residues count along the entry.
UniProt P06276, 29-602: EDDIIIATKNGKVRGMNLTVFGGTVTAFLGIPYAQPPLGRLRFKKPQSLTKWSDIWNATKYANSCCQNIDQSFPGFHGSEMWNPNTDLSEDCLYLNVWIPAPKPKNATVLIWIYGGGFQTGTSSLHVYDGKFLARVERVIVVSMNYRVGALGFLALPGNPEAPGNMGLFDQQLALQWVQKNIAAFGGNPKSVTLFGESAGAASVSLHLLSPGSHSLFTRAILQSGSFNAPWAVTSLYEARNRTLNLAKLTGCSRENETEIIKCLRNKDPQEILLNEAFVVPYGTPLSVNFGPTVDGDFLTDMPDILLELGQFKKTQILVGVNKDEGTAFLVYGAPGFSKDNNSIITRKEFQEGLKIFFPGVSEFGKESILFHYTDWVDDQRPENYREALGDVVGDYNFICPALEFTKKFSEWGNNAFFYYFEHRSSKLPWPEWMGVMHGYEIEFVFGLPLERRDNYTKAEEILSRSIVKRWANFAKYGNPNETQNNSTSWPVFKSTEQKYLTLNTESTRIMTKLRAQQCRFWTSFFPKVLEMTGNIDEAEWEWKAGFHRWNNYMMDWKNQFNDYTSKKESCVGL

The compounds below were run against butyrylcholinesterase (BChE), human recombinant (Homo sapiens, UniProt P06276) (assay: biochemical).

Structure (SMILES)	IC50
COc1ccc2c3c1O[C@@H]1C[C@H](O)C=CC31CCN(C(=O)NC(C)C)C2 (stereo partly drawn) [SPH-1269]	10 µM
COc1ccc2c3c1OC1CC(O)C=CC31CCN(CCC(=O)OC(C)(C)C)C2 (stereo not drawn) [SPH-1277]	7.3 µM
COc1ccc2c3c1O[C@@H]1CC(O)C=CC31CCN(C)C2C#N (stereo partly drawn) [SPH-1290]	100 µM
COc1ccc2c3c1O[C@@H]1CC(O)C=CC31CCN(C(=O)OCC1c3ccccc3-c3ccccc31)C2 (stereo partly drawn) [SPH-1292]	100 µM
COc1ccc2c3c1OC1CC(O)C=CC31CCN(CCN1CC3CC1CN3c1ccccc1)C2 (stereo not drawn) [SPH-1329]	0.85 µM
COc1ccc2c3c1O[C@H]1CC(O)C=CC31CCN(C(=O)NC(C)(C)C)C2 (stereo partly drawn) [SPH-1283]	100 µM
